From the OPERA property sets (Mansouri et al. 2018)

Structure (SMILES): Cc1c([N+](=O)[O-])cccc1[N+](=O)[O-]
- logP: 2.1

Structure (SMILES): Cc1ccc([N+](=O)[O-])c([N+](=O)[O-])c1
- logP: 2.08
